According to ChEMBL document CHEMBL1142025 (Bioorg Med Chem Lett, 2005):

Target: Human immunodeficiency virus type 1 protease (Human immunodeficiency virus 1, UniProt Q72874)
Test: Binding affinity against human immunodeficiency virus (HIV) protease
Type: single protein, human immuno deficiency virus protease

Ki [µM] | SMILES
28 | CC(C)(C)OC(=O)NCCCC[C@H](NC(=O)OCC1c2ccccc2-c2ccccc21)C(=O)O
0.33 | Cc1ccc(S(=O)(=O)N(CC(C)C)[C@H](CCCCNC(=O)OCC2c3ccccc3-c3ccccc32)C(=O)O)cc1
